Where two headings read alike, the source gives them in different places.
Experiments:
TPCK trypsin [1] = target: T1, TPCK trypsin (Bos taurus, UniProt P00760); assay type: biochemical
T1 construct: purchased Thermo Scientific Pierce 23266
T1 sequence (P00760 24-246): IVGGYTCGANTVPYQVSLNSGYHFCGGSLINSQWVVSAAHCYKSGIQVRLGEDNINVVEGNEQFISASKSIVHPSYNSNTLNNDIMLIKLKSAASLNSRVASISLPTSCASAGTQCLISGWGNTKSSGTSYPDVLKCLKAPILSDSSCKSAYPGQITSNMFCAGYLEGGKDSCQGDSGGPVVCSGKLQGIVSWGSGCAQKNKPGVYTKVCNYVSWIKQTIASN
Method: (§1) Protease activity and the inhibition thereof were measured with a Fluorescent Protease Assay Kit (Thermo Scientific Pierce, catalog number 23266). TRIS-buffered saline (TBS, 25 mM Tris, 0.15 M NaCl, pH 7.2) was reconstituted from dry solids in the kit with deionized water. Trypsin stock solution was freshly prepared by dissolving TPCK trypsin from kit with 1 mL deionized water to make a 50 mg/mL solution. Aliquots of 10 μL were stored at −60° C. Individual aliquots of the stock solution were diluted in 1.0 mL of TBS (0.5 mg/mL), and 10 μL of this solution was further diluted in 10 mL of TBS (0.5 μg/mL). This solution was serially diluted 1:1 with TBS to create a trypsin solution of 62.5 ng/mL. The trypsin solution was kept in an ice bath until use. 200 μL of the diluted trypsin (12.5 ng) was added to each prepared polypropylene tube. The solution was aspirated and re-dispensed three times in each tube to assure complete mixing and contact of the solution with the derivatized internal walls of the tubes. A new disposable tip was used for each transfer. After incubation at room temperature for 120 minutes, 100 μL of the trypsin solution from each tube was placed into individual wells of a 96-well, black, flat-bottomed plate (Greiner Bio-one, catalog number 655076, Monroe, N.C.). FTC-casein—(casein protein modified by the addition of fluorescein isothiocyanate, a part of the Fluorescent Protease Assay Kit) solution in TBS buffer was freshly prepared and 100 μL of this solution was added to each well and mixed via aspiration and dispense. The plate was incubated at room temperature for 95 minutes. The fluorescence of the samples in the 96-well plate was measured on a SpectraFluor Plus fluorescence spectrometer (Tecan, Mannedorf, Switzerland) 5 minutes after the solution was added and additionally after 10, 20, 40, 60 and 95 minutes. Increased fluorescence is indicative of trypsin-mediated digestion of the added FTC-casein solution via the decrease of FRET-based fluorescence quenching that exists in the intact protein.

TPCK trypsin [2] = target: T1, TPCK trypsin; assay type: biochemical; remark: listed apart in the source
Method: as §1, with “solution. […]” for “solution.”, “FTC-casein—(casein protein modified by the addition of fluorescein isothiocyanate, a part of the Fluorescent Protease Assay Kit) solution in TBS buffer was freshly prepared and 100 μL of this solution was added to each well and mixed via aspiration and dispense.” left out, “The fluorescence of the samples in the 96-well plate was measured on a SpectraFluor Plus fluorescence spectrometer (Tecan, Mannedorf, Switzerland) 5 minutes after the solution was added and additionally after 10, 20, 40, 60 and 95 minutes.” left out

[3] = 1.0 mM AEBSF in the well (not immobilized), after 20 minutes, background 5382 RFU

Cl.NCCc1ccc(S(=O)(=O)F)cc1 [AEBSF Ligand, 4-(2-aminoethyl)benzenesulfonyl fluoride hydrochloride]
fluorescence of wells that contained FTC-casein, trypsin and inhibitor (TPCK trypsin [1]; [3]): 5265 RFU | average fluorescence of wells with trypsin exposed to tubes with immobilized ligand (TPCK trypsin [1]; Example B, ligand immobilized on tube wall, 12.5 ng trypsin per tube, 120 minutes at room temperature, background 5382 RFU): 12592 RFU | inhibition of trypsin activity (TPCK trypsin [1]; Example B, ligand immobilized on tube wall, trypsin exposed 120 minutes at room temperature): 53% | fluorescence of wells that contained FTC-casein, trypsin and inhibitor (TPCK trypsin [2]; [3]): 5265 RFU | average fluorescence of wells with trypsin exposed to tubes with immobilized ligand (TPCK trypsin [2]; Example A, ligand immobilized on tube wall, 12.5 ng trypsin per tube, 120 minutes at room temperature, background 5382 RFU): 13164 RFU | inhibition of trypsin activity (TPCK trypsin [2]; Example A, ligand immobilized on tube wall, trypsin exposed 120 minutes at room temperature): 50%

Reference: patent US12440833B2, “Sample containers adapted for acoustic ejections and sample preservation and methods thereof” (priority 2011, dated 2025)
